For data set [1] the following is noted: Example 1.
The conditions of data set [2]: background; cited from earlier work.

Regarding `O=C(O)c1cn(C2CC2)c2cc(N3CCNCC3)c(F)cc2c1=O` [ciprofloxacin], the “pK2 (amine group)” value in data set [1] was 8.8. Besides, in data set [2], the pK2 is reported as 8.8.

The record behind these values is patent US8834930B2, “Pulmonary delivery of a fluoroquinolone” (Novartis AG, priority 2008, dated 2014).
